The results in this text go back to ChEMBL document CHEMBL4402585 (J Med Chem, 2020).

The target in experiment [1] is T1, Bromodomain-containing protein 4 (Homo sapiens, UniProt O60885). Kind of experiment: Inhibition of SGRG-K(Ac)-GG-K(Ac)-GLG-K(Ac)-GGA-K(Ac)-RHRKVGG-K-Biotin binding to N-terminal His6-tagged BRD4 bromodomain 2 (344 to 455 residues) (unknown origin) expressed in Escherichia coli BL21 (DE3) preincubated for 15 mins followed by biotin-labeled H4 peptide addition and measured after 10 mins by Alphascreen assay.

Experiment [2] concerns the target T1, Bromodomain-containing protein 4. Nature of the experiment: Inhibition of SGRG-K(Ac)-GG-K(Ac)-GLG-K(Ac)-GGA-K(Ac)-RHRKVGG-K-Biotin binding to N-terminal His6-tagged BRD4 bromodomain 1 (49 to 170 residues) (unknown origin) expressed in Escherichia coli BL21 (DE3) preincubated for 15 mins followed by biotin-labeled H4 peptide addition and measured after 10 mins by Alphascreen assay. On the technique in general: Bead proximity is the source of the signal in Alpha formats.

The IC50 is the point on the concentration scale where inhibition reaches its midpoint. A higher IC50 goes with a need for much substance. Take `Cc1cc(-c2cc(NS(C)(=O)=O)ccc2Oc2ccccc2)n2cc[nH]c(=O)c12`: the IC50 came to 26 nM in experiment [1] and 15 nM in experiment [2].
